In PubChem BioAssay AID504558 (Broad Institute, 2011):
The entries are a selection whose mix differs from that of the whole data set. Activity calls are given as the source filed them. No stated cut-off is given here; in the data, active means inhibition above about 41%; inconclusive means no clear call, values can overlap the other calls; inactive means below that.

Assay: blockers of LMP1-induced NF-kB reporter signal – cell-based, luminescence, single point, primary screen (AID 504558);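 further: 0% = neutral control wells and 100% = reference inhibitor control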
Details: LMP1-induced NF-kappaB luciferase reporter cells, at 12.5 µM, active compounds read high

Row | SMILES | inhibition
1 | CC(C)C(=O)NC(Sc1ccccc1)C(Cl)(Cl)Cl (configuration not stated) | inactive: -0.294%
2 | O=P(Nc1nccs1)(c1ccccc1)c1ccccc1 | inactive: 2.69%
3 | c1nnnn1CCn1cnnn1 | inactive: -17.2%
4 | O=P(Nc1ccccn1)(c1ccc(Br)cc1)c1ccc(Br)cc1 | inactive: 1.09%
5 | CN(C)C1(CNC(=O)c2ccc(Cl)c(S(N)(=O)=O)c2)CCCCC1 | inactive: -2.12%
6 | COc1ccc(N)c([N+](=O)[O-])c1[N+](=O)[O-] | inactive: -7.48%
7 | O=P(Nc1nc2ccccc2s1)(c1ccccc1)c1ccccc1 | inactive: -7.34%
8 | C[C@H]1OP(=O)(Oc2ccccc2)[C@H](O)[C@H](O)[C@H]1N=[N+]=[N-] (some centres not stated) | inactive: 12.5%
9 | O=[As](O)(c1ccccc1)c1ccc(O)cc1 | inactive: -0.347%
10 | O=[N+]([O-])c1ccc(O)c(/C=N/Nc2ccc([N+](=O)[O-])cc2[N+](=O)[O-])c1 | inactive: 13%
11 | CC(=O)NC(SC(=S)N(C)C)C(Cl)(Cl)Cl (configuration not stated) | inactive: -1.47%
12 | O=[N+]([O-])c1ncn(CCn2cnc([N+](=O)[O-])n2)n1 | inactive: 3%
13 | O=C(OC1CN2CCC1CC2)c1cccc(Cl)c1 (configuration not stated) | inactive: -3.36%
14 | Nc1ccc([As](=O)(O)c2ccc([N+](=O)[O-])cc2)cc1 | inactive: -7.79%
15 | C(Cc1nn[nH]n1)Cc1nn[nH]n1 | inactive: 6.15%
16 | c1ccc(-c2nn[nH]n2)c(-c2nn[nH]n2)c1 | inactive: -12.5%
17 | Cc1ccc(NP(=O)(Oc2cccc(C)c2)Oc2cccc(C)c2)nc1 | inactive: -4.86%
18 | CCNC(=S)/N=C(\N)N[N+](=O)[O-] | inactive: -18.2%
19 | O=C(NC1CCS(=O)(=O)C1)NP(=S)(Oc1ccccc1)Oc1ccccc1 (configuration not stated) | inactive: -0.205%
20 | O=P1(N(CCCl)CCCl)OCCC2CCCCN21 (configuration not stated) | inactive: 5.9%
21 | O=C(OC1CN2CCC1CC2)c1ccccc1 (configuration not stated) | inactive: 1.2%
22 | CCC(=O)N1C2C3N(C(=O)CC)C1C1N(C(=O)CC)C(C(N1C(=O)CC)N3C(=O)CC)N2C(=O)CC | inactive: 1.31%
23 | COC(=O)c1cc2c(s1)N=C(c1ccccc1)N(C)P2(=O)N1CCOCC1 (configuration not stated) | inactive: 11.5%
24 | CC(=O)NC(SC(=S)N(CC(C)C)CC(C)C)C(Cl)(Cl)Cl (configuration not stated) | inactive: 3.15%
25 | Cc1ccc(OP(=O)(Nc2ccccn2)Oc2ccc(C)cc2)cc1 | inactive: 1.2%
26 | Cc1ccccc1OP(=O)(Nc1ccccn1)Oc1ccccc1C | inactive: 3.1%
27 | CC(NC(=O)COC(=O)C(O)(c1ccccc1)c1ccccc1)c1ccccc1 (configuration not stated) | inactive: -1.77%
